{"source": "paper PMC10835732", "about": "“Pharmacokinetics of Hydroxytyrosol and Its Sulfate and Glucuronide Metabolites after the Oral Administration of Table Olives to Sprague-Dawley Rats” (Journal of Agricultural and Food Chemistry, 2024)", "origin": "cited, not measured here", "settings": "after phenolic extract from olive cake containing 10.35 mg/kg of hydroxytyrosol; ref Serra et al. 23; cited from earlier work", "data": [{"substance": "hydroxytyrosol glucuronide", "values": [{"measurement": "share in rat plasma", "result": 2, "unit": "%"}]}]}
